This is a sample that favours compounds with a hit; in the whole collection about 3.7% have one here.
miR-21 reporter: miR-21 reporter, rising signal; HeLa miR-21 FLuc reporter, luciferase, 48 h; Potency, µM (doses to about 38.3 µM), for inactives: at the highest dose reporter change, positive = more light; 340,000 tested, under 10 active; AID 2288; active = well fitted rising curve with a large enough effect; inconclusive = small, poorly fitted or top-dose-only effect; inactive = no such curve, though single readings can be large or run the other way;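 further: % of control where 0% means no effect; miR-21 action dims this reporter so a rising signal means less miR-21 action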
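Compounds were titrated across several concentrations (up to approximately 40 uM) and incubated 48 hours with HeLa miR-21-FLuc reporter cells (miR-21 target sequence downstream of FLuc, endogenous miR-21). Readout was firefly luciferase luminescence after lytic detection reagent.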
A549 tox: A549 cytotoxicity, counter-screen for Nrf2 inhibitors; A549 ARE-Fluc cells, CellTiter-Fluor viability, 18-24 h; Potency, µM (titrated, usually from 46 µM), for the others: at the top dose activity change, negative = cytotoxicity, usual class: inhibitors; 0.16% of 390,000 active; also: potency is read from the fitted curve at half-maximal effect; % is scaled to controls: 0 for no effect and ±100 for the full control effect
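A549 ARE_Fluc cells in 5% FBS OPTI-MEM were exposed to compounds in concentration-response for 18-24 h at 37 deg C. Viability was read by CellTiter-Fluor fluorescence (Ex 405/Em 525) after 30 min, before the luciferase read.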
TCR act: T cell receptor activation. Potency, µM (titrated, usually from 9.22 µM), for inactives: at the top dose activation of IL-2 secretion, usual class: activators. 330,000 tested, under 10 active. primary human leukocytes, anti-CD3, IL-2 HTRF, 48 h. AID 504894; also: % of control where 0% means no effect
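1) Mix primary human leukocytes, a-CD3 beads and compound. 2) Incubate 48 hr. 3) Add HTRF IL-2 reagents (a-IL-2-K, a-IL-2-d2).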
Nrf2 activator: activators of Nrf2 (ARE) signaling; AREc32 ARE-luciferase reporter (MCF7-derived line), luminescence, 24 h; Potency, µM (top dose mostly 46.1 µM), without a hit: at the highest dose activation, hits mostly activators; 0.31% of 410,000 active; AID 624171; also: potency is read from the fitted curve at half-maximal effect; % of control where 0% means no effect; nearly all actives have a fitted effect of over 65% in size
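For detection, Steady-Glo was added and plates sat 30 min at RT; before that, AREc32_Fluc cells grown overnight in OPTI-MEM/5% FBS had been treated with 23 nL compound for 24 hr at 37 deg C.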
Nrf2 block: Nrf2 pathway inhibition | A549 ARE-Fluc reporter, luciferase luminescence, 18-24 h | Potency, µM (titrated, usually from 46 µM), for inactives: at the top dose activity change, negative = inhibition, usual class: inhibitors | 2.1% of 360,000 active | AID 504444; also: potency is read from the fitted curve at half-maximal effect; % is scaled to controls: 0 for no effect and ±100 for the full control effect; nearly all actives have a fitted effect of over 60% in size
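Nrf2 activity is the BugLite luminescence, read 15 min after reagent at room temperature, following CellTiter-Fluor cytotoxicity readout (30 min, 37C). Compound titrations were applied for 18-24 h to 5000 A549 ARE_Fluc cells/well in 5% FBS OPTI-MEM.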
ClpP mod: qHTS Assay for Activators of ClpP; ATP-dependent Clp protease proteolytic subunit (Bacillus subtilis (strain 168)), P80244; 1.9% of 340,000 active; purified B. subtilis ClpP, FRET peptide cleavage, 20 min; Potency, µM (series often up to 57.5 µM), without a hit: at the top dose activity change, negative = active; active = well fitted falling curve with a large enough effect; inconclusive = small, poorly fitted or top-dose-only effect; inactive = no such curve, though single readings can be large or run the other way; also: potency is read from the fitted curve at half-maximal effect; the source files actives as falling curves though it sought activators and does not explain the sign; nearly all actives have a fitted effect of over 65% in size
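FRET quenching reversal measured ClpP activation: 10 microg/mL B. subtilis ClpP at pH 8 with the FRET-FV decapeptide, read at 430 nm after 320 nm excitation. The 20-min minus 0-min signal was scaled between DMSO/no-enzyme wells and ADEP (5.8 microM final).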
An asterisk follows results filed as active; ? = inconclusive; / = not tested or not shown; [ ] = remark or other dose. Unless noted, calls follow the shape of the dose curve; as a rule, active = well fitted curve in the direction sought with a large enough effect; inconclusive = small, poorly fitted or top-dose-only effect, or another doubt; inactive = no such curve, though single readings can be large; an effect the other way counts as inactive or inconclusive.

Protein sequences, listed by entry. Tags and fused reporters are not part of them.
ATP-dependent Clp protease proteolytic subunit (Bacillus subtilis (strain 168)), P80244, UniProt P80244, whole entry, looked up: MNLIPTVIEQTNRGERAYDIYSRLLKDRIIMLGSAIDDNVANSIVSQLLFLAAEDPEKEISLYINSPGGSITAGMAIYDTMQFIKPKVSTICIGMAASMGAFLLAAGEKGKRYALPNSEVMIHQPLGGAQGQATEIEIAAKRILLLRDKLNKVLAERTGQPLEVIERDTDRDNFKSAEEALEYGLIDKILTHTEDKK

Results follow in this order: miR-21 reporter, A549 tox, TCR act, Nrf2 activator, Nrf2 block, ClpP mod
- CN(c1ncnc2c1c(-c1ccccc1)cn2-c1ccc(F)cc1)C1CCCCC1
    1%, ?, /, 0%, /, 28µM*
- CCOc1ccc(-n2cc(-c3ccccc3)c3c(NC4CCCCC4)ncnc32)cc1
    0%, 13%, /, -1%, /, ?
- Cc1ccc(-n2cc(-c3ccccc3)c3c(N4CCOCC4)ncnc32)cc1
    9%, -20%, -9%, 0%, 23µM*, /
- CN(c1ncnc2c1c(-c1ccccc1)cn2-c1cccc(Cl)c1)C1CCCCC1
    -3%, 16%, /, 3%, /, -18%
- CCOc1ccc(-n2cc(-c3ccccc3)c3c(NC4CCCC4)ncnc32)cc1
    3%, 10%, /, 0%, /, 11µM*
- CC1CN(c2ncnc3c2c(-c2ccccc2)cn3-c2ccc(F)cc2)CC(C)O1 (centres undefined)
    20%, ?, 0%, 3%, 18µM*, /
- CCCOc1ccc(F)cc1-c1cc(C(=O)Nc2ccc(C(C)C)cc2)[nH]n1
    /, /, /, 6%, /, -7%
- CC1CCCCN1CCCNC(=O)c1[nH]c2ccccc2c1Sc1ccc(Cl)cc1 (centres undefined)
    2%, -10%, /, -4%, -21%, -1%
- Cc1nc2c(=O)n(C)c(=O)[nH]c2n1Cc1ccccc1
    4%, /, 1%, 0%, 5%, 28µM*
- CN(Cc1ccccc1)C(=O)c1cccc(NC(=O)Cc2ccc(NC(=O)C3CCCN(C(=O)c4ccccc4)C3)cc2)c1 (centres undefined)
    /, -3%, -9%, 3%, 11%, 0%

Single records, as listed above. Order of screens: miR-21 reporter | A549 tox | TCR act | Nrf2 activator | Nrf2 block | ClpP mod
CCOc1ccc(-n2cc(-c3ccccc3)c3c(NC4CCCC4)ncnc32)cc1 in the list: 3% | 10% | / | 0% | / | 11µM*
CN(Cc1ccccc1)C(=O)c1cccc(NC(=O)Cc2ccc(NC(=O)C3CCCN(C(=O)c4ccccc4)C3)cc2)c1 (centres undefined) in the list: / | -3% | -9% | 3% | 11% | 0%
CC1CCCCN1CCCNC(=O)c1[nH]c2ccccc2c1Sc1ccc(Cl)cc1 (centres undefined) in the list: 2% | -10% | / | -4% | -21% | -1%
CCOc1ccc(-n2cc(-c3ccccc3)c3c(NC4CCCCC4)ncnc32)cc1 in the list: 0% | 13% | / | -1% | / | ?
CC1CN(c2ncnc3c2c(-c2ccccc2)cn3-c2ccc(F)cc2)CC(C)O1 (centres undefined) in the list: 20% | ? | 0% | 3% | 18µM* | /

(further entries)
Results follow in this order: miR-21 reporter, A549 tox, TCR act, Nrf2 activator, Nrf2 block, ClpP mod
- NC(=O)c1ccsc1NC(=O)COC(=O)Cc1cccc2ccccc12
    14%, -17%, 0%, 1%, 4.1µM*, -2%
- CC(=O)N1CCC2(CC1)OC(=O)C(C)=C2C(=O)NCc1cccc(Cl)c1
    -3%, 3%, /, -2%, /, 0%
- Cc1ccc(-c2cc(C(F)F)nc(N3CCC(C)CC3)n2)cc1
    0%, -1%, /, 0%, ?, 25µM*
- CC1CCN(c2nc(-c3ccccc3)cc(C(F)(F)F)n2)CC1
    -8%, -1%, /, 0%, 2%, ?
- COC(=O)C[C@@H]1CC[C@@H](NS(=O)(=O)c2ccccc2OC)[C@@H](CO)O1
    /, /, /, /, /, -2%
- CC(C)c1ccc(NC(=O)Cn2nnc(C(=O)NCc3ccco3)c2N)cc1
    -1%, -2%, 7%, 3%, 11%, 0%
- CCOc1ccc(-n2c(Cc3ccccc3)nnc2SCc2nc(-c3cccs3)no2)cc1
    1%, ?, /, 6%, 18µM*, 2%
- CCOc1ccc(-n2c(Cc3ccccc3)nnc2SCc2c(C)noc2C)cc1
    1%, -4%, -3%, 2%, /, 2.8µM*
- COc1ccccc1-c1noc(CSc2nnc(Cc3ccccc3)n2-c2ccc(C)c(C)c2)n1
    3%, ?, /, -3%, 23µM*, 0%
- CCOC(=O)CSc1nnc(Cc2ccccc2)n1-c1ccc(C)cc1
    -1%, -5%, -4%[46.1 µM], 0%, 0%, 1%
- Cn1c2ccccc2c(=O)c2ccc(-c3ccc4c(c3)OCO4)cc21
    -70%, -9%, -4%, 0%, ?, 4%
- O=C1C=CC(=O)c2c(O)c(CO)c(CO)c(O)c21
    /, 16µM*, 4%, 8%, 23µM*, -14%
- O=c1c(CO)cc(CO)cc(CO)c1O
    0%, -5%, 14%, 0%, -2%, -5%
- CC1CCCN(CCCNC(=O)c2ccc3c(c2)N(Cc2cccc(Cl)c2)C(=O)c2ccccc2S3(=O)=O)C1 (centres undefined)
    11%, -12%, /, 19%, /, -3%
- CSc1cccc(NC(=O)Cn2c3ncccc3c(=O)n2-c2ccc(C)cc2)c1
    -3%, 0%, /, 1%, -25%, 25µM*
- Cc1ccc(-n2c(=O)c3cccnc3n2CC(=O)Nc2cc(Cl)ccc2C)cc1
    4%, 2%, /, 3%, -19%, -2%
- Cc1ccc(-c2nnc(-c3ccc(Br)cc3)o2)o1
    -33%, 4%, -4%, 4%, 26%, 32µM*
- Brc1ccc(-c2nnc(-c3ccco3)o2)cc1
    -51%, -2%, -4%, ?, ?, 37%
- CN(CCO)c1cc(N2CCC3(CC2)OCCO3)c2nonc2c1[N+](=O)[O-]
    1%, -18%, 2%[46.1 µM], 0%, -4%, -3%
- O=[N+]([O-])c1c(NCCO)cc(N2CCC3(CC2)OCCO3)c2nonc12
    -6%, 9.2µM*, -7%[46.1 µM], 0%, -18%, -2%
- CS(=O)(=O)N(Cc1ccc(Cl)cc1)c1ccc(C(=O)Nc2cccnc2)cc1
    14%, -19%, 2%, 0%, 16µM*, -1%
- CN(c1ccc(C(=O)Nc2cccnc2)cc1)S(C)(=O)=O
    -3%, -10%, 6%[46.1 µM], 0%, /, 28µM*
- CC1(C)CCc2cc(-c3ccn(S(=O)(=O)c4ccccc4Cl)n3)ccc2O1
    -39%, 11%, 1%, 0%, -12%, /
- COc1ccc(S(=O)(=O)n2ccc(-c3ccc4c(c3)CCC(C)(C)O4)n2)cc1
    -17%, 0%, 7%, 0%, 13µM*, /
- COc1cc(CC(=O)N2CCc3ccccc32)cc(OC)c1OC
    9%, -4%, 9%, 4%, ?, -1%
- CCOC(=O)N1CCc2cc(OC)c(OC)c3c2c1cc1cc(OC)c(OC)cc13
    /, -9%, -2%, 8%, ?, 28µM*
- CCOC(=O)c1ccc2nc(NC(C)=O)sc2c1
    -53%, -13%, -2%, 2%, ?, /
- CCOC(=O)c1ccc2nc(Nc3nc4ccc(F)cc4s3)sc2c1
    -3%, 20%, -5%[46.1 µM], -3%, ?, 16µM*
- COC(=O)c1ccc2nc(Nc3nc4c(F)cc(F)cc4s3)sc2c1
    ?, -5%, 3%[46.1 µM], -3%, ?, 32µM*
- Cc1sc(NC(=O)Cc2ccc3c(c2)OCO3)nc1-c1ccc2c(c1)CCN2C(=O)c1cccc(F)c1
    9%, 11%, -2%[46.1 µM], 0%, 7.3µM*, -5%
- CCOC(=O)C(C(C)=O)c1c(Br)c(O)c(O)c2c(C(=O)c3ccc(C)cc3)coc12 (centres undefined)
    ?, 8.2µM*, /, 23%, 7.3µM*, -2%
- CCOC(=O)c1c(C)n(-c2ccc(C)cc2)c2c(C(C(C)=O)C(=O)O)c(Br)c(O)c(O)c12 (centres undefined)
    0%, -13%, 3%, ?, -20%, -2%
- CCCCOc1ccc(CNC(=O)CCCN2C(=O)CSc3c2c(C)nn3-c2ccccc2)cc1
    20%, -13%, /, 0%, 29µM*, -1%
- Cc1nn(-c2ccccc2)c2c1N(CCCC(=O)NCc1ccccc1)C(=O)CS2
    21%, -11%, /, 1%, ?, 0%

Assay outcomes: PubChem BioAssay, National Center for Advancing Translational Sciences (NCATS)
